IC50 data for 2 substances are collected here from PMC7504216 (Molecules, 2020).

The chains behind the UniProt entries cited, without tags or fusion partners. Residues count along the entry.
UniProt P27338, whole entry: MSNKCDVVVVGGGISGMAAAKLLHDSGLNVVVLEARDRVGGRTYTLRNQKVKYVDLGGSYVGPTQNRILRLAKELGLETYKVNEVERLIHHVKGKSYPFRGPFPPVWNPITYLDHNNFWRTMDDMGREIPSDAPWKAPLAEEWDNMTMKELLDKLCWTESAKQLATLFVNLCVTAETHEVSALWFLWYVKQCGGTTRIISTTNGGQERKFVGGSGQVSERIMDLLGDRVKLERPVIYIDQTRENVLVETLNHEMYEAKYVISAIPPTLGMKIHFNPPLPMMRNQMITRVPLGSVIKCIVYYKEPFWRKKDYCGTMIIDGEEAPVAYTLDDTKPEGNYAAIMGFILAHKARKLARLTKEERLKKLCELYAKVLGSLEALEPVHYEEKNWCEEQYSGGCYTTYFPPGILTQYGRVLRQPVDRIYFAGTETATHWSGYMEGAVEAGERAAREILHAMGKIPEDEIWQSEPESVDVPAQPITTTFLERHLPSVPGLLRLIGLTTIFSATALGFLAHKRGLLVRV
UniProt P21397, whole entry: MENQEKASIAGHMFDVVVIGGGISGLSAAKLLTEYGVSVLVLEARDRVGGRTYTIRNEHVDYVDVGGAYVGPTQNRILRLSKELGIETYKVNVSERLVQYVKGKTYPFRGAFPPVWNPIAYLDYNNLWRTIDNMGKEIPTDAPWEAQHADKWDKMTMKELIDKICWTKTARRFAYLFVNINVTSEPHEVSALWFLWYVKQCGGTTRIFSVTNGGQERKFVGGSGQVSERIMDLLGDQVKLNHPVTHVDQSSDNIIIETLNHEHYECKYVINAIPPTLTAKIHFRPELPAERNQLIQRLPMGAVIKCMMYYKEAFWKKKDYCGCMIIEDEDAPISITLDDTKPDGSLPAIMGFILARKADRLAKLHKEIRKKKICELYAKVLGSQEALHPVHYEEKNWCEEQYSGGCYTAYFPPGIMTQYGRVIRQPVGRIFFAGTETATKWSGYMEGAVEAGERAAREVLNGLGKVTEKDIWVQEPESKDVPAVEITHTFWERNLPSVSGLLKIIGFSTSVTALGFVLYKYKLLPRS
UniProt O42275, 24-633: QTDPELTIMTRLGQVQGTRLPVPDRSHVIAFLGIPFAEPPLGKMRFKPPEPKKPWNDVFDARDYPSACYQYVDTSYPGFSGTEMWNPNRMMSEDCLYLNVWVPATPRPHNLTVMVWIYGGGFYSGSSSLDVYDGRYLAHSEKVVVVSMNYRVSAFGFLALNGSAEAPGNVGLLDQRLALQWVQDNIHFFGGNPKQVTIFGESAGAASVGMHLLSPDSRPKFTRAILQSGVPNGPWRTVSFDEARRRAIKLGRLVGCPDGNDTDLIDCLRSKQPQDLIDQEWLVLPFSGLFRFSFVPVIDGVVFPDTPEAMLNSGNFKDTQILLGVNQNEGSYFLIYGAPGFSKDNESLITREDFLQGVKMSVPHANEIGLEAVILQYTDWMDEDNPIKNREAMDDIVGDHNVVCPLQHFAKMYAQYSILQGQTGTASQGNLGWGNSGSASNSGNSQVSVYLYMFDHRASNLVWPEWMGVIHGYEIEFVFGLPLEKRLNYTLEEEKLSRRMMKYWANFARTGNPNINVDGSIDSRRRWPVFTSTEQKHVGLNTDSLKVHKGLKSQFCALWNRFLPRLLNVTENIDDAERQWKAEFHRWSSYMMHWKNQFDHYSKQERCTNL
UniProt P81908, whole entry: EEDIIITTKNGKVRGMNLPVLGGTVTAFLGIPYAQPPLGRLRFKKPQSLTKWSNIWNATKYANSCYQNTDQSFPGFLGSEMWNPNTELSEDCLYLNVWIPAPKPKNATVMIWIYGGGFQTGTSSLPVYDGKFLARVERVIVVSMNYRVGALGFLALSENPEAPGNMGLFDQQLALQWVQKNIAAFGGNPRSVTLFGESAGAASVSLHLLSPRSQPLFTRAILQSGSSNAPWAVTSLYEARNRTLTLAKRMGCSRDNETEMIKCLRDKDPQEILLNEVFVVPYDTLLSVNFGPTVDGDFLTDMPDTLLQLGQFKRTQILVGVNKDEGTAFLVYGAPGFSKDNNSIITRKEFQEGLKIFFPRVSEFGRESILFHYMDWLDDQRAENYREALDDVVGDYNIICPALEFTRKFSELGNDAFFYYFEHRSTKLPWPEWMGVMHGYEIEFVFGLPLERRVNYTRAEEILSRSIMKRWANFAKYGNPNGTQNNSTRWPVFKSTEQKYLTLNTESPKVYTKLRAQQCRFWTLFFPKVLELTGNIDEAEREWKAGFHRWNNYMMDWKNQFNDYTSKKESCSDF

Bounds are passed on as bounds.

One assay concerns the target recombinant human MAO-B (Homo sapiens, UniProt P27338). The format is biochemical. Also on record: purchased Sigma-Aldrich. To be noted: read-out: IC50 (µM) MAO-B; mean ± SE, triplicate.
A further assay deals with T1, recombinant human MAO-A (Homo sapiens, UniProt P21397).
T1 construct: purchased Sigma-Aldrich
Type of assay: biochemical. To be noted: read-out: IC50 (µM) MAO-A; mean ± SE, triplicate.

Assay [1] deals with T2, AChE from Electrophorus electricus (Electrophorus electricus, UniProt O42275).
T2 construct: purchased Sigma-Aldrich
In words: AChE inhibition assay (Ellman, ATCI). Type of assay: biochemical. To be noted: read-out: IC50 (µM) AChE; mean ± SE, triplicate. For orientation: In Ellman's method for cholinesterases, released thiocholine reacts with DTNB.

In a further assay the target is BChE from equine serum (Equus caballus, UniProt P81908). In words: BChE inhibition assay (Ellman, BTCI) and kinetics. The conditions noted are these: read-out: IC50 (µM) BChE; mean ± SE, triplicate.

The term IC50 denotes the midpoint of a concentration-inhibition curve. For the substance isoliquiritin apioside, the 50% inhibitory concentration (IC50) on recombinant human MAO-B and at recombinant human MAO-A was above 40 µM throughout.

For the substance liquiritin apioside, the half-inhibitory concentration (IC50) in assay [1] is 36.7 ± 1.42 µM; at recombinant human MAO-B it was above 40 µM; at recombinant human MAO-A, above 40 µM; on BChE from equine serum, above 40 µM.
